One compound from ChEMBL document CHEMBL1126647, “Fluorine-18-labeled progestin ketals: synthesis and target tissue uptake selectivity of potential imaging agents for receptor-positive breast tumors” (J Med Chem, 1993) can be followed below.

A word on the logP: it is a log measure of how a compound divides between an organic and an aqueous phase. A low value points to lower lipophilicity.

A short description of the series: Partition coefficient (logP). It counts as physicochemical. The conditions noted are these: octanol/water.

The compound `CC(=O)[C@H]1CC[C@H]2[C@@H]3CCC4=CC(=O)CC[C@]4(C)[C@H]3CC[C@]12C` [PROGESTERONE] registered a logP of 3.87.
